Data reported in PMC3483018 (Journal of Medicinal Chemistry, 2012).

System: MV4–11 human FLT3-ITD positive AML cell line
Experiment: Cell viability assay
Assay type: cell-based

## Cc1nn(C)cc1-c1nc2c(N3CCN(Cc4ccc(Cl)cc4)CC3)c(Cl)cnc2[nH]1 [Compound 27e, 6-Chloro-7-(4-(4-chlorobenzyl)piperazin-1-yl)-2-(1,3-dimethyl-1H-pyrazol-4-yl)-3H-imidazo[4,5-b]pyridine]
  GI50: 291 nM
